# Data taken from article PMC6259611, “Comparative Anti-Infectious Bronchitis Virus (IBV) Activity of (-)-Pinene: Effect on Nucleocapsid (N) Protein” (Molecules, 2011).
# Legend:
# IBV (Gray strain) = assay: Anti-IBV activity (inhibition of virus replication, MTT method); type: cell-based, Infectious bronchitis virus; conditions: CC50/IC50
# Vero-E6 cells = conditions: 72 h, MTT
compound,measurement,setting,value
"NC(=O)c1ncn([C@@H]2O[C@H](CO)[C@@H](O)[C@H]2O)n1 [Ribavirin, ribavirin, reference compound]",SI (selective index),IBV (Gray strain),>8.47
same,TD0 (maximum noncytotoxic concentration),Vero-E6 cells,0.78 ± 0.15 mM
